Values quoted from earlier work, collected in article PMC8342319, “Predicting blood-to-plasma concentration ratios of drugs from chemical structures and volumes of distribution in humans” (Molecular Diversity, 2021).
Some compounds may have been tested in ways that are not shown here.

How the values were obtained:
[1] = median if multiple values were reported, ref numbers in Table S1; cited from earlier work
[2] = human, intravenous; median if multiple values were reported; ref numbers in Table S1; cited from earlier work
plasma protein = conditions: median if multiple values were reported, cited from earlier work

CC(C)N1CCC(N(C(=O)Cc2ccccc2)c2ccc(Cl)cc2)CC1
Rb Human (blood-to-plasma concentration ratio) [1]: 0.74
in vivo Vd_(L/kg)_Human [2]: 6.600 L/kg
fp_Human (plasma protein; human plasma free fraction, ref numbers in Table S1): 0.155
fp Human (free fraction in plasma) (plasma protein; human, collected value, ref: Table S1): 0.155
